Measured values as given in publication PMC9776540, “Therapeutic Potential of a Water-Soluble Silver-Diclofenac Coordination Polymer on 3D Pancreatic Cancer Spheroids” (Journal of Medicinal Chemistry, 2022).

Tested on: PANC-1 cells
Details: PANC-1, 1 at IC50, others at molar ratio 1:1:1, 72 h after treatment
Description: MCF7 cell line (human breast adenocarcinoma, morphology: epithelial-like, ATCC: HTB-22), A549 cell […]
keratinocyte, morphology: epidermal, CSL Cell Lines Service GmbH); were cultured in Dulbecco’s Modified Eagle’s Medium (DMEM, Corning) with phenol red, supplemented with 10% fetal bovine serum (FBS) and with 1% streptomycin/penicillin. […]
from metastatic site: brain, ATCC: HTB-81) and MCR-5 cell line (primary line of human pulmonary […]
10% fetal bovine serum (FBS). Cultures were incubated at 37 °C under a humidified atmosphere containing 5% CO2. Cells were transferred using a solution containing 0.05% trypsin and 0.5 mM EDTA.
All media and other ingredients were purchased from ALAB, Poland. […]
Acridine Orange (OA) and Propidium Iodide PI Staining
AO is a nucleic acid-binding fluorophore that is cell membrane permeable and suitable for selective staining of nucleated living cells. PI is a nucleic acid-binding dye that is impermeable to live cells and suitable for staining dead or dying nucleated cells. All live, nucleated cells fluoresce green due to AO, and dead, nucleated cells are stained with both AO and PI and fluoresce red. For analysis of 1-induced

## O=[N+]([O-])[O-].[Ag+] [AgNO3, silver(I) nitrate]
  cytotoxicity seen by AO/PI staining: moderate cytotoxic effect
